Experimental data taken from ChEMBL document CHEMBL1123122, “Factors affecting binding of trans-N-[2-(methylamino)cyclohexyl]benzamides at the primary morphine receptor” (1985).
Some compounds may have been tested in ways that are not shown here.

Assay: Partition coefficient (logP)
Conditions: octanol/water

Row | Compound | logP
1 | C=CCN(C)[C@@H]1CCCCC1NC(=O)c1ccc(Cl)c(Cl)c1 (some centres not stated) | 3.18
2 | CN(C(=O)c1ccc(C#N)cc1)C1CCCC[C@H]1N(C)C (some centres not stated) | 0.45
3 | C=CCN(C)[C@@H]1CCCCC1N(C)C(=O)c1ccc(O)cc1 (some centres not stated) | 1.77
4 | CN(C)[C@@H]1CCCCC1NC(=O)c1ccc(O)cc1 (some centres not stated) | 0.12
5 | CN(C(=O)c1ccc(C(F)(F)F)cc1)C1CCCC[C@H]1N(C)C.CS(=O)(=O)O (some centres not stated) | 2.9
6 | CN(C(=O)c1ccc([N+](=O)[O-])cc1)C1CCCC[C@H]1N(C)C.Cc1ccc(S(=O)(=O)O)cc1 (some centres not stated) | 0.83
7 | CN(C(=O)c1ccc(O)cc1)C1CCCC[C@H]1N(C)C (some centres not stated) | 0.35
